Laboratory results as given in patent publication US7279477B2 (Chugai Seiyaku Kabushiki Kaisha, priority 2001, dated 2007).

Sequences of proteins named here, by UniProt entry; tags and fusion partners are left off. Residues count along the entry.
UniProt Q920F5, 39-492 limits assumed: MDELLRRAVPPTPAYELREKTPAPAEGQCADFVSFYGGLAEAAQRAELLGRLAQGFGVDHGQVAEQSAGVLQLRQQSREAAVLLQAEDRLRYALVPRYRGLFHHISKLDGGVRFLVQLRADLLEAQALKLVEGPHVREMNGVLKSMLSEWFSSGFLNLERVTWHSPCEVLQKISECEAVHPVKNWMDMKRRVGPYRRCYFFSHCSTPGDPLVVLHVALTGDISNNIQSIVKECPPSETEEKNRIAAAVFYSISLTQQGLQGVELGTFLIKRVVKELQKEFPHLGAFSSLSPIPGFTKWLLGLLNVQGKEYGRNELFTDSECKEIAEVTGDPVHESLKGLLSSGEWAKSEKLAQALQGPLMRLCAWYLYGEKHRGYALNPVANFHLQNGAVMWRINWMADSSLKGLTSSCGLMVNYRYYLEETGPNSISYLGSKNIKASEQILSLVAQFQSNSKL

Target: malonyl-CoA decarboxylase prepared from rat heart (Rattus norvegicus, UniProt Q920F5)
Assay: In vitro MCD inhibitory assay (spectrophotometric, 96 well)
Type: biochemical
Details: read-out: IC50 of the MCD inhibitors, concentration causing 50% inhibition of MCD activity

IC50: 38 nM
Structure (SMILES): CCCCNC(=O)c1c(-c2ccccc2)nc(-c2ccc(C(O)(C(F)(F)F)C(F)(F)F)cc2)n1Cc1ccccn1
